Values quoted from earlier work, collected in patent US20250009659A1, “DEVELOPMENT OF A NEW FAMILY OF NANOCARRIERS DERIVED FROM NATURAL TETRAMERIC ACID LIPIDS” (UNIVERSITE DE RENNES, priority 2021, published 2025).

Conditions: insulin in animals; most promising nanocarrier studies [1]

In the case of insulin, the oral bioavailability is given as 10 to 20%.
